This experiment concerns the target HDAC2 (Homo sapiens, UniProt Q92769). Kind of experiment: HDAC2 inhibition, trypsin-coupled kinetic fluorescence homogeneous assay. The class given is biochemical.

By UniProt entry, the sequences of proteins in these tests, tags left out.
UniProt Q92769, whole entry: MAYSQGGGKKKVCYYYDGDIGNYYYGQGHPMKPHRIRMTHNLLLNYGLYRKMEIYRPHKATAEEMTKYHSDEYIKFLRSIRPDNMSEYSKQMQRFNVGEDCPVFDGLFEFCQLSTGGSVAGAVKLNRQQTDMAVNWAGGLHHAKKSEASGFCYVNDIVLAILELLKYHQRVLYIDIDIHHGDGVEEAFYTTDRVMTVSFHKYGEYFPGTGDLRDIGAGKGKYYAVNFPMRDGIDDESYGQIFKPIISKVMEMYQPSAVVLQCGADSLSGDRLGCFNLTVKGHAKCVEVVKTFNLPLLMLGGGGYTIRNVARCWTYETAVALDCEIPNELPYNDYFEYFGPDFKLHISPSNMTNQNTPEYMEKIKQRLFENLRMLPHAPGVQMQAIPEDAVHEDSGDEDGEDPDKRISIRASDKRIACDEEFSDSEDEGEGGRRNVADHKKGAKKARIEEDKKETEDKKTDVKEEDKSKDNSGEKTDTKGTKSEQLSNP

For orientation: IC50 means the concentration that gives 50% inhibition. A high value points to a need for much substance. As for `CC(C)[C@@H]1NC(=O)[C@]2(C)CSC(=N2)c2csc(n2)CNC(=O)C[C@@H](/C=C/CCS)NC1=O` [ab6_123a amide thiol], the IC50 came out at 0.0111 µM.
